# Test system: rat pooled liver microsomes
smiles,measurement,value
"CC(NC(C)(C)C)C(=O)c1cccc(Cl)c1 (stereo not shown) [Bupropion, bupropion]",decrease of carvedilol metabolisation rate,14.5%
